Test results taken from BindingDB's records for doi:10.1021/acs.jmedchem.5b01110 (Mayo Clinic, 2015).

Chains of the proteins cited; added tags and fusions are not shown.
UniProt P32238, whole entry: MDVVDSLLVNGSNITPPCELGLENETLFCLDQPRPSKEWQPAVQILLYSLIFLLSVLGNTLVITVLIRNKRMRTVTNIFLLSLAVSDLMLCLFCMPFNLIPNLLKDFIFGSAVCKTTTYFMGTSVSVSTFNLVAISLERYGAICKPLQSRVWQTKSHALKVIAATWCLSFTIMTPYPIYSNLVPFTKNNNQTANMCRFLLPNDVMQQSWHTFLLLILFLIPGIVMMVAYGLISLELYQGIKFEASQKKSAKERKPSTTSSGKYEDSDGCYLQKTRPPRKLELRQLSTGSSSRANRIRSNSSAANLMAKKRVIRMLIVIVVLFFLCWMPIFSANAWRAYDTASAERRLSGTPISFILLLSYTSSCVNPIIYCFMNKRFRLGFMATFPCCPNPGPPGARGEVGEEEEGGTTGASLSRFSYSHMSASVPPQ
UniProt P32238, whole entry L356H: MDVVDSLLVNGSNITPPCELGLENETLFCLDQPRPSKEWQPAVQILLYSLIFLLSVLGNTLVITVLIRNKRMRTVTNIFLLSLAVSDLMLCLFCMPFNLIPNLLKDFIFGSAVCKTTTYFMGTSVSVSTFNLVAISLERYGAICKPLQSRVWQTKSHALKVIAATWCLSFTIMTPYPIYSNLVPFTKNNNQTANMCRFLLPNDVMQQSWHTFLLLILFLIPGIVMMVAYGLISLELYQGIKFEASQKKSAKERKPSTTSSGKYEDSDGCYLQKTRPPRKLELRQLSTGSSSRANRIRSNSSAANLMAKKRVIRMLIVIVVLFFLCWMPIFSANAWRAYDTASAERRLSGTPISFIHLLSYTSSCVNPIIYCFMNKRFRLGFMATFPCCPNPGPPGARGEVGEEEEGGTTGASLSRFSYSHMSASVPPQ
UniProt P32238, whole entry W326A: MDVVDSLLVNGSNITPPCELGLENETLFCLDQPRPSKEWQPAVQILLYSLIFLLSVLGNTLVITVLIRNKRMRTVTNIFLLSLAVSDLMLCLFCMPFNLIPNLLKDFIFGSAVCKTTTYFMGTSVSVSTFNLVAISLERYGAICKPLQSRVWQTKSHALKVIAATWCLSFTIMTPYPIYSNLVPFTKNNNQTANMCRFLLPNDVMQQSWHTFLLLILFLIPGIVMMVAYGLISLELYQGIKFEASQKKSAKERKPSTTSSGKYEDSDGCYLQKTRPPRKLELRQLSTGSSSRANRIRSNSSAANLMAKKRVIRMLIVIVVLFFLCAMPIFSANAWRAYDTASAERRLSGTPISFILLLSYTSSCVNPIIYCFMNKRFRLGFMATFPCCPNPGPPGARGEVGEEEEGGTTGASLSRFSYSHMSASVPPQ

What was measured:
[1] = biological target: Cholecystokinin receptor type A (Homo sapiens, UniProt P32238); assay: Displacement of [125I-BDZ-1] from wild-type human CCK1R expressed in CHO cells after 60 mins by scintillation counter
[2] = biological target: T1, Gastrin/cholecystokinin type B receptor (Homo sapiens, UniProt P32239); assay: Agonist activity at human CCK2R V6.51I, Y6.52F mutant expressed in CHO cells assessed as intracellular calcium response by fluorescence analysis
T1 sequence (P32239 whole entry): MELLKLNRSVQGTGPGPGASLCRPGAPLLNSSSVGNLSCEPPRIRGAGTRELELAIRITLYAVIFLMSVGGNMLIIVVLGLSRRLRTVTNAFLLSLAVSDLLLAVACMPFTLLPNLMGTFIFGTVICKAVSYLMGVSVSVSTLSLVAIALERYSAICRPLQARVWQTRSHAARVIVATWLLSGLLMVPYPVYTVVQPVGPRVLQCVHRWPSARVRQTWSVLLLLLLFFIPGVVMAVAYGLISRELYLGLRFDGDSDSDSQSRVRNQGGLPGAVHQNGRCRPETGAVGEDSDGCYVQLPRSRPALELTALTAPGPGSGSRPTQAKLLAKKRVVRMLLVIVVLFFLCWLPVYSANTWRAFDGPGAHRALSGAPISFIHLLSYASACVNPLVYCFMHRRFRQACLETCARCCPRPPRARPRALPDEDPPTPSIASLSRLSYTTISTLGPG

[3] = biological target: T1, Gastrin/cholecystokinin type B receptor; assay: Agonist activity at human CCK2R H7.39L mutant expressed in CHO cells assessed as intracellular calcium response by fluorescence analysis
[4] = biological target: T1, Gastrin/cholecystokinin type B receptor; assay: Displacement of [125I-BDZ-2] from human CCK2R V3.28T, S3.29T mutant expressed in CHO cells after 60 mins by scintillation counter
[5] = biological target: T1, Gastrin/cholecystokinin type B receptor; assay: Displacement of [125I-BDZ-2] from human CCK2R V6.51I, Y6.52F mutant expressed in CHO cells after 60 mins by scintillation counter
[6] = biological target: T1, Gastrin/cholecystokinin type B receptor; assay: Displacement of [125I-CCK] from human CCK2R T2.61N mutant expressed in CHO cells after 60 mins by scintillation counter
[7] = biological target: T1, Gastrin/cholecystokinin type B receptor; assay: Displacement of [125I-CCK] from human CCK2R V6.51I, Y6.52F mutant expressed in CHO cells after 60 mins by scintillation counter
[8] = biological target: Cholecystokinin receptor type A (Homo sapiens, UniProt P32238, L356H); assay: Agonist activity at human CCK1R L7.39H mutant expressed in CHO cells assessed as intracellular calcium response by fluorescence analysis
[9] = biological target: Cholecystokinin receptor type A (Homo sapiens, UniProt P32238, W326A); assay: Agonist activity at human CCK1R W6.48A mutant expressed in CHO cells assessed as intracellular calcium response by fluorescence analysis
[10] = biological target: T1, Gastrin/cholecystokinin type B receptor; assay: Displacement of [125I-CCK] from wild-type human CCK2R expressed in CHO cells after 60 mins by scintillation counter

Row | Ki [1] | EC50 [2] | EC50 [3] | IC50 [4] | IC50 [5] | IC50 [6] | IC50 [7] | EC50 [8] | EC50 [9] | Ki [10] | Structure (SMILES)
1 | < 1000 nM | < 1000 nM | < 1000 nM | < 1000 nM | < 1000 nM | < 1000 nM | < 1000 nM | < 100 nM | – | – | Cc1cc(C)cc(C[C@H]2CCCCN2C(=O)CN2C(=O)[C@@H](Cc3n[nH]c4ccccc34)c3nnc(-c4ccccc4)n3-c3ccccc32)c1
2 | – | – | – | < 1000 nM | < 1000 nM | < 1000 nM | < 1000 nM | – | < 100 nM | < 1000 nM | CC(C)N(Cc1ccccc1)C(=O)CN1C(=O)[C@@H](Cc2c[nH]c3ccccc23)c2nnc(-c3ccccc3)n2-c2ccccc21 [2-((4S)-4-((1H-indol-3-yl)methyl)-5-oxo-1-phenyl-4H-benzo[b][1,2,4]triazolo[4,3-d][1,4]diazepin-6(5H)-yl)-N-benzyl-N-isopropylacetamide]
